This passage reports EC50 and Ki results from ChEMBL document CHEMBL1649335, “Discovery of {1-[4-(2-{hexahydropyrrolo[3,4-c]pyrrol-2(1H)-yl}-1H-benzimidazol-1-yl)piperidin-1-yl]cyclooctyl}methanol, systemically potent novel non-peptide agonist of nociceptin/orphanin FQ receptor as analgesic for the treatment of neuropathic pain: design, synthesis, and structure-activity …” (Bioorg Med Chem, 2010).

Amino acid sequences for entries named in this document (tags omitted).
UniProt P35372, whole entry: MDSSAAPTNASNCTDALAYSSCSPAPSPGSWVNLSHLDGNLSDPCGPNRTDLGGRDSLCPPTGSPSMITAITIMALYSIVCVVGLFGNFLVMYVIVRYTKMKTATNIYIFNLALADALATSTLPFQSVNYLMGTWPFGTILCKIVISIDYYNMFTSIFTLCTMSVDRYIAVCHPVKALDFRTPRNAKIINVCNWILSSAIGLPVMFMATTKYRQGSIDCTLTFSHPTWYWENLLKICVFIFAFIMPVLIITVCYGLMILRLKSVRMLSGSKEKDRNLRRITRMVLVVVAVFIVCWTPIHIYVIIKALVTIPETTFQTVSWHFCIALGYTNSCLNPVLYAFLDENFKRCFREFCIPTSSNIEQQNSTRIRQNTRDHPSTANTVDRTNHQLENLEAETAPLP
UniProt P41146, whole entry: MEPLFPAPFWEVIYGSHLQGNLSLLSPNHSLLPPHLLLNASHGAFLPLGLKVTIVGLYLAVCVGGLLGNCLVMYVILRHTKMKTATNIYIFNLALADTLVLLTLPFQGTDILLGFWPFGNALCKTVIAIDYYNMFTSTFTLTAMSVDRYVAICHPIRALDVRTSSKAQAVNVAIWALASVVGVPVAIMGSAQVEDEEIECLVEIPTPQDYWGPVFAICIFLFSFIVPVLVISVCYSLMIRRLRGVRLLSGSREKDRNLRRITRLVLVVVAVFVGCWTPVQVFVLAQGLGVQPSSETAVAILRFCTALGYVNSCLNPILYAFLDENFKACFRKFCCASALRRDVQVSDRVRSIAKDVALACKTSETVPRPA
UniProt P41143, whole entry: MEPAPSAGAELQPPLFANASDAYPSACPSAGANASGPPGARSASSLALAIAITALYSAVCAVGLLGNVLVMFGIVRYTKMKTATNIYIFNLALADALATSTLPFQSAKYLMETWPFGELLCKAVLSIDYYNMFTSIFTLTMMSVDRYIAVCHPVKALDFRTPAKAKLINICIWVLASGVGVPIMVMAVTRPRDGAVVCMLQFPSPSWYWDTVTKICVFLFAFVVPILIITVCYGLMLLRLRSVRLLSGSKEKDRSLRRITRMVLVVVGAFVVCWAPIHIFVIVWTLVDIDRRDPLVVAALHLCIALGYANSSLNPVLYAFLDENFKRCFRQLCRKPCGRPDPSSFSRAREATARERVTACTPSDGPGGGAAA
UniProt P41145, whole entry: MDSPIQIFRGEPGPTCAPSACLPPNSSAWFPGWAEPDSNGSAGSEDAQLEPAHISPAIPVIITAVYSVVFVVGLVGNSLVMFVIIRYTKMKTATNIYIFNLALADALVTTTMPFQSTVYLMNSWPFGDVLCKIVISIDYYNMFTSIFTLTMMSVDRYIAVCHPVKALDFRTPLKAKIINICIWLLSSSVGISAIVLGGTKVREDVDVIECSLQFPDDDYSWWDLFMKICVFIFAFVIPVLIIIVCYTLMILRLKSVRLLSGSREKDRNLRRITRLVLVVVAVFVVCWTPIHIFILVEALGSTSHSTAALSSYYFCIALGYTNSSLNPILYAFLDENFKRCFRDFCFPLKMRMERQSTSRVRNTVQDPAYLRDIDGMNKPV

pEC50, pKi: −log10 of the molar value.

For assay [1], the target named is T1, Mu-type opioid receptor (Homo sapiens, UniProt P35372). To be noted: cho-k1.
For assay [2], the target named is T2, Nociceptin receptor (Homo sapiens, UniProt P41146). As to conditions: hek293.
Assay [3] has as its target T1, Mu-type opioid receptor. As to conditions: cho-k1. The source holds these as a separate data set.
Assay [4] deals with Delta-type opioid receptor (Homo sapiens, UniProt P41143). To be noted: cho-k1.
Assay [5] concerns the target T2, Nociceptin receptor. To be noted: hek293. The source holds these as a separate data set.
In assay [6] the target is T3, Kappa-type opioid receptor (Homo sapiens, UniProt P41145). As to conditions: hek293.
Assay [7] has as its target T3, Kappa-type opioid receptor. To be noted: hek293. The source holds these as a separate data set.

On to `O=c1[nH]c2ccccc2n1C1CCN(C2(CO)CCCCCCC2)CC1`, for which the pEC50 was 6.84 at Mu-type opioid receptor [1], 7.43 at Nociceptin receptor [2] and 6.71 in assay [7]. Further, the pKi on Mu-type opioid receptor [3] was 7.80; in assay [4], < 5.30; at Nociceptin receptor [5], 8.37; in assay [6], 6.62.

A word on the pEC50: it is the negative decadic logarithm of the EC50, by convention in mol/L. In general, pKi refers to the negative decadic logarithm of the Ki, by convention in mol/L.
